The data set in a line: Ex vivo radioactivity in tissues and organs after PET imaging of normal mice (Table 1). An excerpt: After PET imaging, the animals were sacrificed and major tissues and organs were collected. With both ^18F-AlF-NEB and ^18F-FB-MSA, the blood had the highest counts.

Regarding “^18F-FB-MSA: mouse serum albumin (MSA) labeled in vitro with N-succinimidyl 4-^18F-fluorobenzoate”, the “radioactivity, Blood” value was found to be 34.71 ± 3.29; the “radioactivity, Intestine” value is given as 3.10 ± 0.28; the “radioactivity, Kidney” value was determined as 12.01 ± 05.59; the “radioactivity, Liver” value is listed as 7.42 ± 053. Moreover, the “radioactivity, Muscle” value came to 0.80 ± 0.09; the “radioactivity, Pancreas” value is reported as 2.09 ± 0.15; the “radioactivity, Spleen” value was 8.52 ± 1.71.

For the origin of these results see patent US10258701B2, “Labeled evans blue dye derivative for in vivo serum albumin labeling” (The United States of America, as represented by the …, priority 2015, dated 2019).
